The record followed here is patent US12435051B2, “Dual modulator of mGluR5 and 5-HT2A receptor, and use thereof” (Vivozon Inc., priority 2020, dated 2025).

By UniProt entry, the sequences of proteins in these tests, tags left out. Residues count along the entry.
UniProt P28223, whole entry: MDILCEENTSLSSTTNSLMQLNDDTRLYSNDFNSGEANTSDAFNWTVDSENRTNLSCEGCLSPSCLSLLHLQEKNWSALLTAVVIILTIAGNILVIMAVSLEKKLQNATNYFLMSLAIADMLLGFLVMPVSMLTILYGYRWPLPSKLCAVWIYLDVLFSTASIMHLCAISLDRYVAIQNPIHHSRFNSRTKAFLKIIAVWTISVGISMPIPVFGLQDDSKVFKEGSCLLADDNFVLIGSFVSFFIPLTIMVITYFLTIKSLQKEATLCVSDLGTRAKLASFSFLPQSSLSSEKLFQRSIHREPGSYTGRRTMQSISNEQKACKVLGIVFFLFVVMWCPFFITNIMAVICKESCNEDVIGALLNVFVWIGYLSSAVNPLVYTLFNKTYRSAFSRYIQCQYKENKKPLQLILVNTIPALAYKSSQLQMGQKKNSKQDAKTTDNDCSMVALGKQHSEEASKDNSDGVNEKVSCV
UniProt P41594, 21-1212 limits assumed: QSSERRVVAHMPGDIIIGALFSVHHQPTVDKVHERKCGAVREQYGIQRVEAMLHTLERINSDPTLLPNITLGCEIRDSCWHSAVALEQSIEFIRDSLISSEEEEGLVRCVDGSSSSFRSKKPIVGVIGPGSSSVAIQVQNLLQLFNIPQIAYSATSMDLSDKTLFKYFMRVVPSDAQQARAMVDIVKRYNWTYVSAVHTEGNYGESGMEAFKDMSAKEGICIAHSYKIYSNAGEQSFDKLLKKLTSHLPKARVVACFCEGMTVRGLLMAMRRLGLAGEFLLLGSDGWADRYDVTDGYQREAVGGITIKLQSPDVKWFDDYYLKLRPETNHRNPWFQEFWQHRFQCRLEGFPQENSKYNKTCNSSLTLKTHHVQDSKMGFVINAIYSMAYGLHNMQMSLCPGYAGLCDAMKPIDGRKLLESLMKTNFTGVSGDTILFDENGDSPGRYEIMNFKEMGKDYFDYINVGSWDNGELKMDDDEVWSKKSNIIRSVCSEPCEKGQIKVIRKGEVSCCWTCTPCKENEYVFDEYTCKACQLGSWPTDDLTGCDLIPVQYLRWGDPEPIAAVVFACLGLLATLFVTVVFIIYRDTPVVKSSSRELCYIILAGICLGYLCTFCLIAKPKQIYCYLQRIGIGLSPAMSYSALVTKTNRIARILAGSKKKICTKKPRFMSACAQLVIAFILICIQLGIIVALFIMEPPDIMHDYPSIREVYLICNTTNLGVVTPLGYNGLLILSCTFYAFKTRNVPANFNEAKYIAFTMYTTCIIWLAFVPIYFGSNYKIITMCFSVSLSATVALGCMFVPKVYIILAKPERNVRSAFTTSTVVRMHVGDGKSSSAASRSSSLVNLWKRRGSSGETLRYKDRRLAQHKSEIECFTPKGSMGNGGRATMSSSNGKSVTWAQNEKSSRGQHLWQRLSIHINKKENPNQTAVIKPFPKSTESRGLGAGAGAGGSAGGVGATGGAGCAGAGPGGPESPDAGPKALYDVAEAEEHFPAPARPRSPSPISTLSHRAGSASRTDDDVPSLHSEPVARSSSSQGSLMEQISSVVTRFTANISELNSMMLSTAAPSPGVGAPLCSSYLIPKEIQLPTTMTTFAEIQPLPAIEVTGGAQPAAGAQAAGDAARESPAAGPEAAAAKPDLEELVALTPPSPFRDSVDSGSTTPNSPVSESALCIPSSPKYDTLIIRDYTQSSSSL

One may read the pIC50 as the negative decadic logarithm of the IC50, by convention in mol/L.

For assay [1], the target named is human 5-HT2AR (Homo sapiens, UniProt P28223). Briefly: HTRF-based IP1 accumulation assay (5-HT2AR antagonistic effect). As to conditions: read-out: Human 5-HT2AR (IC50); HEK293 cells overexpressing human 5-HT2AR; serotonin at EC80. As to the method:
The 5-HT2AR antagonistic effect of the test compounds was confirmed by measuring the production amount of IP1 using the HEK293 cell line permanently overexpressing the human 5-HT2AR. The test compounds were dissolved in 100% DMSO to a final concentration of 10 mM. The starting concentration of 10 μM was prepared from the stock solution, followed by serial dilutions to prepare working solutions in a buffer containing lithium chloride (LiCl). The cells and compounds prepared in the test buffer were placed in a 96-well plate and incubated at room temperature for 10 minutes. Serotonin of EC80 concentration was added, followed by incubation at 37° C. for 30 minutes in a light-shielding state. To measure IP1 accumulation in cells, JP1-d2 acceptor and IP1-Cryptate donor-which are HTRF-based substances for fluorescence signals-were added and incubated for 1 hour at room temperature in a light-shielded state. The fluorescent emission signals of acceptor and donor were detected, and HTRF ratio values were substracted by mean value of serotonin control. The percentage of activation was calculated by normalization of the serotonin control (0%) and IP1 control (100%). The IC50 values of the test compounds are represented in Table 1. (+: 1,000-2,000 nM, ++: 500-1,000 nM, +++: 100-500 nM, ++++: less than 100 nM).
Background: In TR-FRET formats the signal depends on donor and acceptor labels being close together.

The target of assay [2] is mGluR5 (Homo sapiens, UniProt P41594). Briefly: Fluorescence-based Ca2+ mobilization assay. Conditions: read-out: Human mGluR5 (IC50); HEK293 cells overexpressing mGluR5; L-glutamate at EC80. As to the method: In order to measure the activity on the mGluR5, an experiment was carried out to check the change in the intracellular Ca^2+ level using the HEK293 cell line permanently overexpressing the mGluR5. The cells in the cell culture medium were aliquoted into a 384-well plate coated with poly-D-lysine and cultured in a 37° C. incubator supplied with 5% CO2. The next day, the medium was removed and a dye loading buffer—in which a reagent capable of measuring Ca^2+ was dissolved—was added, and then incubated at 37° C. for 60 minutes. The test compounds were dissolved in 100% DMSO at a final concentration of 10 mM to make a stock solution. The starting concentration of […] was prepared from the stock solution, followed by serial dilutions to prepare working solutions (test compound working solutions). The test compound working solutions were added to the cells that were incubated in the dye loading buffer, which were maintained for 30 minutes at room temperature in a light-shielding state before measurement. The Ca^2+ level change induced by L-glutamate at EC80 concentration was measured for 2 minutes using FLIPR Tetra (MDS Analytical Technologies). […] The efficacy of the test compounds was calculated as IC50 values and represented in Table 1. […]
(A change in cytosolic calcium serves as a functional read-out for many receptors and channels.)

Molecules are shown by their SMILES. pIC50: −log10 of the molar value.

In the case of `O=C(NCC1(O)CCOCC1)c1ccc(C#Cc2ccccc2F)cc1`, the pIC50 in assay [1] is 6.00 to 6.30; in assay [2] it was 6.30 to 7.00.
For `CC1(CNC(=O)c2ccc(C#Cc3ccc(F)cc3F)cc2)CCOCC1` the same measures were 6.30 to 7.00 and over 7.00.
